This is an account of results in patent US8859559B2, “Substituted pyrazines and their use in the treatment of disease” (Boehringer Ingelheim International GmbH, priority 2011, dated 2014).

By UniProt entry, the sequences of proteins in these tests, tags left out.
UniProt Q61180, whole entry: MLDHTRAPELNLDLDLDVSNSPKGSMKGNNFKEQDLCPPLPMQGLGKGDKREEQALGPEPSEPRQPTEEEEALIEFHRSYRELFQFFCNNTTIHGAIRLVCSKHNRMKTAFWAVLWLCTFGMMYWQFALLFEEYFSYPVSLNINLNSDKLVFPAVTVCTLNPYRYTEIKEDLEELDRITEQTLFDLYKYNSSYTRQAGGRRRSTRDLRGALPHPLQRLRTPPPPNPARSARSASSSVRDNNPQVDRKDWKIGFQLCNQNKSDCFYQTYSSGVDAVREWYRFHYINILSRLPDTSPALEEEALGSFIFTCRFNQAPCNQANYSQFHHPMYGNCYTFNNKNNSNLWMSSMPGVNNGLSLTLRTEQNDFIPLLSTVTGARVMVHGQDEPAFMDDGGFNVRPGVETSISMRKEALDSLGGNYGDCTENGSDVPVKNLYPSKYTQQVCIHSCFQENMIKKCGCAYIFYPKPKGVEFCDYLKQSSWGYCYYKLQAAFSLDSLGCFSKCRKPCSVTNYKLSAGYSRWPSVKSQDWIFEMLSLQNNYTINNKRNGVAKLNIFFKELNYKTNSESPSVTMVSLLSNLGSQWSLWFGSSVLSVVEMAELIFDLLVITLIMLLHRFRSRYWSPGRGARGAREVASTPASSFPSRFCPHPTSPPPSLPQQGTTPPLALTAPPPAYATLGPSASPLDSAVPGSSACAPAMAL
UniProt Q9WU38, whole entry: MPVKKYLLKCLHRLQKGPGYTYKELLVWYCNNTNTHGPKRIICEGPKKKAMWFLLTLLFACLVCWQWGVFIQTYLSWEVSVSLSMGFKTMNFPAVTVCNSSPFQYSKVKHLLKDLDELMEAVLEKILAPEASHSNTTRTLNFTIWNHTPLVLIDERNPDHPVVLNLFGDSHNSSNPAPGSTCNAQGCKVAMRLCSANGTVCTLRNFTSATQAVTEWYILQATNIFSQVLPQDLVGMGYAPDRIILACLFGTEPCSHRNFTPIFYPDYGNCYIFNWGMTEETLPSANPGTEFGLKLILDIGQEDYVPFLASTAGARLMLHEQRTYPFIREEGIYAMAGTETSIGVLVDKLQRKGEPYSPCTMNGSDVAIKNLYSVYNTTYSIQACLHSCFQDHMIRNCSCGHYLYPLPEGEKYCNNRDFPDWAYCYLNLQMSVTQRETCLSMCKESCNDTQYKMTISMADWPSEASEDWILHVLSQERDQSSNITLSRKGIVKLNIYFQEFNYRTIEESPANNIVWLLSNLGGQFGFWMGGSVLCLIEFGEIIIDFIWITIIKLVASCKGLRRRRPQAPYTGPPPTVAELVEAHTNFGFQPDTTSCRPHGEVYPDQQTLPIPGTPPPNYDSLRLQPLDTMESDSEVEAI
UniProt Q9WU39, whole entry: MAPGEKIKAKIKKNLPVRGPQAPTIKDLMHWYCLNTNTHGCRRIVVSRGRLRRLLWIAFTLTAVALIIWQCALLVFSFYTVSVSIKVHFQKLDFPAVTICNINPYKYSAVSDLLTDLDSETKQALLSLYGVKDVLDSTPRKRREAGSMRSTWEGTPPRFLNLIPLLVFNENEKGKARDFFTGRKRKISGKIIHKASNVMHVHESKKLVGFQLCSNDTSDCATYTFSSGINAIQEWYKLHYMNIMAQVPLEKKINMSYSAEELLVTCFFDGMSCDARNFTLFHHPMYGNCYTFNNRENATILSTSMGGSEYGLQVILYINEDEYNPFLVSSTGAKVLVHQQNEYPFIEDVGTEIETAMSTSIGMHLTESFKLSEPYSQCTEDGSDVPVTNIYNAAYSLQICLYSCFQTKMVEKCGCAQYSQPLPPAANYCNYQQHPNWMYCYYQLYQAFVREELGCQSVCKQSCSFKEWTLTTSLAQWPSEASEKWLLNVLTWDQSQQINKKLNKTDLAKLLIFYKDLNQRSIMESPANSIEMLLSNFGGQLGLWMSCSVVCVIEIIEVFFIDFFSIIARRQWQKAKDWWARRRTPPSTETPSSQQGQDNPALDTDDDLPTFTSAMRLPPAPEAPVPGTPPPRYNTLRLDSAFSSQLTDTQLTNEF

The first assay deals with ENaC (Epithelial Sodium Channel) (Mus musculus, UniProt Q61180+Q9WU38+Q9WU39). Description: Ussing chamber: inhibition of amiloride sensitive short circuit current (I_sc) in M-1 cells. The conditions noted are these: mouse kidney M-1 cells. As to the method:
Mouse kidney M-1 cells were cultivated in DMEM containing 5% FCS and 5 μM dexamethasone for 10 to 12 days on polyester transwell filters. Filters were inserted into a teflon-coated well-plate which fit into the in-house ussing chamber system. Prior to measurement the medium of M-1 cells was replaced with Caco-2 transport buffer (Invitrogen, Germany). During measurements, the Ussing chamber temperature was kept at 37° C. Short circuit currents (I_sc) were measured in the voltage-clamp mode using an in-house built amplifier (Boehringer Ingelheim, Biberach) with the software package Lab View for data acquisition and analysis. The transepithelial electrical resistance (TEER) was determined by the application of voltage steps of ±5 mV every 5 sec. Compounds were administered at a final concentration of 3 μM or at increasing concentrations (1-3-10 μM) to the apical solution. At the end of each experiment the amiloride sensitive I_SC was measured by adding 3 μM amiloride to the apical compartment. Results are expressed as inhibition in percent of the amiloride effect or as IC50. With the example compounds given above, the following IC50 values were determined in the Ussing Chamber assay: […]
Compound `CCOP(=O)(O)c1ccc(CN2CCC(NC(N)=NC(=O)c3nc(Cl)c(N)nc3N)CC2)cc1` had an IC50 of 23 nM. This lies in the double-digit nanomolar range. The compound `CC(=O)NCCNS(=O)(=O)c1ccc(CN2CCC(NC(N)=NC(=O)c3nc(Cl)c(N)nc3N)CC2)cc1` had an IC50 of 8 nM. On the same count and under the same terms, with `COC(=O)COc1ccc(CN2CCC(NC(N)=NC(=O)c3nc(Cl)c(N)nc3N)CC2)cc1` the figure was 8 nM; with `COC(=O)COc1cc(CN2CCC(NC(N)=NC(=O)c3nc(Cl)c(N)nc3N)CC2)cc(OCC(=O)OC)c1`, 4 nM; with `NC(=NC(=O)c1nc(Cl)c(N)nc1N)NC1CCN(Cc2cccc(C(=O)O)c2)CC1`, 45 nM. Same read-out and setting: with `COC(=O)c1cc(CN2CCC(NC(N)=NC(=O)c3nc(Cl)c(N)nc3N)CC2)cc(C(=O)NCCOCCO)c1` the figure was 4 nM.

Staying with this assay, now noted: mouse kidney M-1 cells, tested form: TFA.
Consider `C[N+](C)(C)CCNC(=O)c1ccc(CN2CCC(NC(N)=NC(=O)c3nc(Cl)c(N)nc3N)CC2)cc1`, for which the IC50 was determined as 2 nM. The same measure, in the same setting: under `NC(=NC(=O)c1nc(Br)c(N)nc1N)NC1CCN(Cc2ccc(OCC(=O)O)cc2)CC1` stands 103 nM.

What is called IC50 is the concentration that inhibits the measured activity by half. High values mean a need for much substance, low ones inhibition by little substance.
